According to US7875638B2, “Synthesis of epothilones, intermediates thereto, analogues and uses thereof” (Sloan-Kettering Institute for Cancer Research, priority 2002, dated 2011):

Key:
[1] = preliminary metabolic degradation studies
[2] = preliminary metabolic degradation studies; remark: listed apart in the source

[17]ddEpoB [Compound 23, reference compound]
Degradation on exposure to nude mouse plasma [1]: ≤ 30 min | Degradation on exposure to human plasma [2]: ≤ 30 min
